Legend:
[1] = Qualitative chelation (colorimetry, dialysis); type: binding
[2] = Qualitative chelation (colorimetry); type: binding; settings: dilute Cr^3+ and Cr^6+ in water
NIH-3T3 fibroblasts [3] = assay: Sub-cellular compartment imaging (nuclei, F-actin, mitochondria); settings: 10 μg mL^−1, 1 day
[4] = tested on: RAW 264.7 macrophages exposed to CoCl2.6H2O; assay: In vitro chelation, acute exposure; type: cell-based, murine; settings: 100 μg mL^−1 CoCl2.6H2O 18 hours, then 1 mg mL^−1 for 1 minute, fresh media 1 day
RAW 264.7 macrophages = assay: Cytocompatibility / cellular vitality
NIH-3T3 fibroblasts [5] = assay: Cytocompatibility / cellular vitality

What does the source list for `OCC(S)CS` (stereo not drawn)?
colorimetric response to cobalt ([1]; dilute Co^2+ in water): strongly colored chelating complexes; colorimetric response to nickel ([1]; dilute Ni^2+ in water): strongly colored chelating complexes; colorimetric response to chromium [2]: did produce a visible colorimetric response; morphology of nuclei, F-actin and mitochondria (NIH-3T3 fibroblasts [3]): reduced cortical F-actin structures and disrupted mitochondrial tracks; effect on cellular vitality [4]: showed improvement in cellular vitality; cellular vitality (Calcein AM) (RAW 264.7 macrophages; 100 μg mL^−1, 2 days): dramatically reduced cellular vitality; cytocompatibility (cell enumeration, metabolism, toxicity) (RAW 264.7 macrophages; 2 days): significantly reduced proliferation in a dose-dependent manner; cellular vitality (Calcein AM) (NIH-3T3 fibroblasts [5]; 100 μg mL^−1, 2 days): dramatically reduced cellular vitality; cytocompatibility (cell enumeration, metabolism, toxicity) (NIH-3T3 fibroblasts [5]; 2 days): significantly reduced proliferation in a dose-dependent manner

From patent US11479617B2, “Chelator-functionalized glycosaminoglycans” (priority 2018, dated 2022)
